# Measured values as given in PMC8958541.
# Tests used:
# Assay in all cases: purified protein
# Conditions in all cases: 37.0 °C
# [1] = tested on: CCCOC(=O)c1cc(O)c(O)c(O)c1
# [2] = tested on: O=C(O[C@@H]1O[C@H](CO)[C@@H](O)[C@H](O)[C@H]1O)c1cc(O)c(O)c(O)c1
# COC(=O)c1cc(O)c(O)c(O)c1 = tested on: COC(=O)c1cc(O)c(O)c(O)c1
substance,measurement,setting,value
CbTan2 (Clostridium butyricum),Km,[1],22.2 ± 2.26 mM
same,kcat/Km,[1],6170 M⁻¹ s⁻¹
same,Km,[2],23.0 ± 3.70 mM
same,kcat/Km,[2],10200 M⁻¹ s⁻¹
same,Km,COC(=O)c1cc(O)c(O)c(O)c1,23.4 ± 2.68 mM
same,kcat/Km,COC(=O)c1cc(O)c(O)c(O)c1,7990 M⁻¹ s⁻¹
